{
  "source": "ChEMBL document CHEMBL3580637",
  "about": "“Selective Inhibition of Bacterial Topoisomerase I by alkynyl-bisbenzimidazoles” (Medchemcomm, 2014)",
  "molecular_target": "T1, DNA topoisomerase 1 (Homo sapiens) (UniProt P11387)",
  "T1 sequence (whole entry)": "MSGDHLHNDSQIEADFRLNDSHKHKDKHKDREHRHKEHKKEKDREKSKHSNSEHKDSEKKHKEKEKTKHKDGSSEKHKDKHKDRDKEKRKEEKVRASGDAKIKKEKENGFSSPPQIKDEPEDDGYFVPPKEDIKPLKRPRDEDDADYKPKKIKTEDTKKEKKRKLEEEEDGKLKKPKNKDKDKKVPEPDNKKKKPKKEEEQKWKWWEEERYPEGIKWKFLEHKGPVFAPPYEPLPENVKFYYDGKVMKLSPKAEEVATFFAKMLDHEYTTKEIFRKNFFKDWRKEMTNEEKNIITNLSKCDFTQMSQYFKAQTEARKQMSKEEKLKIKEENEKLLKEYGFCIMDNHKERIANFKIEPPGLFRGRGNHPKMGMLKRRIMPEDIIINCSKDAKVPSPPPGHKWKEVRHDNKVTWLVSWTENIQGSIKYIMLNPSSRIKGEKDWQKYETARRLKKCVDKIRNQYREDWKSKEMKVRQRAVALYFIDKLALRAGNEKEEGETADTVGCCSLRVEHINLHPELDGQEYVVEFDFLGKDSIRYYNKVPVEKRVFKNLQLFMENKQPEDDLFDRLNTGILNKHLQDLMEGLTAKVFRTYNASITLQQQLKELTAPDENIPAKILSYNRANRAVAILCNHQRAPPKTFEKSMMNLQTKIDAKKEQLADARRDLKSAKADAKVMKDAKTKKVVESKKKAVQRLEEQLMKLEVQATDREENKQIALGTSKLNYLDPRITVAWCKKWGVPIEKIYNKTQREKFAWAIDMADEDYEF",
  "test": "Inhibition of human DNA topoisomerase-1 using supercoiled pBAD-GFPuv plasmid DNA as substrate assessed as prevention of supercoiled DNA template from relaxation at 50 uM after 30 mins by agarose gel electrophoresis relative to control",
  "method_in_brief": "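Human topoisomerase I (2 units) was incubated with 250 ng supercoiled pBAD-GFPuv in 20 mM Tris-HCl pH 7.9, 50 mM KAc, 10 mM Mg(Ac)2, 1 mM DTT and 1 µg/ml BSA, with compound at 10 or 50 µM, for 30 min at 37 °C. After a phenol stop, DNA was resolved on 1% agarose without chloroquine beside a relaxed plasmid marker and stained with ethidium bromide.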",
  "data": [
    {"smiles": "CN1CCN(c2ccc3[nH]c(-c4ccc5[nH]c(-c6ccc(O)cc6)nc5c4)nc3c2)CC1", "note": "[HOECHST 33258]", "values": [
      {"measurement": "inhibition", "value": 70, "unit": "%"}
    ]}
  ]
}
